Values of other authors, collected in patent publication US11364242B2, “Treatment agents for inhibiting HIV and cancer in HIV infected patients” (UNIVERSITY OF MARYLAND, BALTIMORE, priority 2015, dated 2022).

Tested on: 220 other kinases
Details: cited from earlier work

## CNC(=O)c1cccc(-c2ccc3c(N4CCOC[C@@H]4C)nc(N4CCOC[C@@H]4C)nc3n2)c1 [AZD2014, 3-[2,4-bis[(3S)-3-methylmorpholin-4-yl]pyrido[2,3-d]pyrimidin-7-yl]-N-methylbenzamide]
  selectivity against other kinases: inactive
